Experimental data as given in PubChem BioAssay AID1508624 (National Center for Advancing Translational Sciences (NCATS), 2021).
This is a selection; strong and weak results do not stand in their true shares. Records with an inconclusive call do not appear. Activity calls are given as the source filed them. Calls follow the shape of the dose curve; as a rule, active = well fitted activation curve with a large enough effect; inconclusive = small, poorly fitted or top-dose-only effect, or another doubt; inactive = no such curve, though single readings can be large or run the other way.

Assay: Primary qHTS for Identification of Small Molecule Activators of Huntingtin-Antisense Promoter Activity; also: nearly all actives have a fitted effect of over 55% in size
Conditions: HEK293 HTT-AS promoter firefly luciferase reporter, 24 h, percent change from vehicle, -100% = no light; at 57.5 µM (top of the series) unless noted
Text: Assay Provider: Russell L. Margolis M.D.
Department Neurology, Johns Hopkins University School of Medicine, Baltimore, MD
Huntington's Disease (HD) is a neurodegenerative disorder caused by a CAG repeat expansion in exon 1 of huntingtin (HTT). While there are currently no disease-modifying treatments for HD, recent efforts have focused on development of nucleotide-based therapeutics to lower HTT expression. As an alternative to siRNA or oligonucleotide methods, we hypothesized that suppression of HTT expression might be accomplished by small molecules that either (1) directly decrease HTT expression by suppressing HTT promoter activity or (2) indirectly decrease HTT expression by increasing the promoter activity of HTT-AS, the gene antisense to HTT that appears to inhibit expression of HTT.
We developed and employed a high throughput screen for modifiers of HTT and HTT-AS promoter activity using luminescent reporter HEK293 cells; of the 52,041 compounds tested, we identified 898 replicable hits. We used a rigorous stepwise approach to assess compound toxicity and the capacity of the compounds to specifically lower huntingtin protein in 5 different cell lines, including HEK293 cells, HD lymphoblastoid cells, mouse primary neurons, HD iPSCs differentiated into cortical-like neurons, and HD hESCs. We found no compounds which were able to lower huntingtin without lowering cell viability in all assays, though the potential efficacy of a few compounds at non-toxic doses could not be excluded.
SEQUENCE No. (1, 2, 3, etc.); […] (e.g., Cells, Incubation, Reagent, etc.); VALUE and DESCRIPTION.
1; Reagent; 4 uL; 2,500 Hek293 luciferase reporter cells per wells
3; Compound; 23 nL; Control inhibitor / compound library
5; Reagent; 2.5 uL; Firefly Luc reagent; Dual-Glo Luciferase Reporter Assay System (Promega)
6; Time; 10 min; room temperature incubation
7; Detection; Luminescence; FLuc
NOTES (numbers refer to sequence above)
1; High-throughput screening, measuring luminescence from a Hek293 luciferase reporter, was performed in 1,536 well white-walled tissue-culture treated plates. 2,500 cells were plated in 4 µL of Opti-MEM per well using a Multidrop Combi Reagent Dispenser (ThermoFisher).
2; Assay plates were cultured for 24 hours.
3; Control inhibitor (PTC124; final concentration of 50 uM) and compound library (at final concentrations of 460 nM - 57.5 uM) were added to the assay plate using the Kalypsis Pintool Robotic System equipped with 1536 pinheads.
4; Cells were then incubated for 24 hours at 37 degrees C prior to luminescence measurements.
5; In all cases, luminescence was measured using the Dual-Glo Luciferase Reporter Assay System (Promega) following the manufacturer's instructions.
6; Room temperature incubation.
7; Luminescence signal was obtained using the PerkinElmer ViewLux plate reader. Results were normalized to vehicle control (0% activity) and zero RLU (-100% activity).

Structure (SMILES)	activity change, positive = activation
CCNC(C)Cc1ccc2c(c1)OCO2 (stereo unspecified)	inactive: -10.8% [at 116 µM]
Cc1cc([N+](=O)[O-])cc([N+](=O)[O-])c1O	inactive: -91.8% [at 116 µM]
CN(C(=O)Cc1ccccc1)[C@H]1CC[C@@]2(CCCO2)C[C@@H]1N1CCCC1	inactive: -3.58%
CCn1c(=O)n([C@@H]2CCN(CC3CCCCCCC3)C[C@@H]2CO)c2ccccc21	inactive: -12.8%
NC(=O)Nc1ccc([As](=O)(O)O)cc1	inactive: -5.25%
CN(C(=O)Cc1ccc(Cl)c(Cl)c1)[C@H]1CC[C@@]2(CCCO2)C[C@@H]1N1CCCC1	inactive: -10.4%
